Data as given in BindingDB's records for 22001085.

Protein sequences, listed by entry. Tags and fused reporters are not part of them.
UniProt Q29550, whole entry, looked up: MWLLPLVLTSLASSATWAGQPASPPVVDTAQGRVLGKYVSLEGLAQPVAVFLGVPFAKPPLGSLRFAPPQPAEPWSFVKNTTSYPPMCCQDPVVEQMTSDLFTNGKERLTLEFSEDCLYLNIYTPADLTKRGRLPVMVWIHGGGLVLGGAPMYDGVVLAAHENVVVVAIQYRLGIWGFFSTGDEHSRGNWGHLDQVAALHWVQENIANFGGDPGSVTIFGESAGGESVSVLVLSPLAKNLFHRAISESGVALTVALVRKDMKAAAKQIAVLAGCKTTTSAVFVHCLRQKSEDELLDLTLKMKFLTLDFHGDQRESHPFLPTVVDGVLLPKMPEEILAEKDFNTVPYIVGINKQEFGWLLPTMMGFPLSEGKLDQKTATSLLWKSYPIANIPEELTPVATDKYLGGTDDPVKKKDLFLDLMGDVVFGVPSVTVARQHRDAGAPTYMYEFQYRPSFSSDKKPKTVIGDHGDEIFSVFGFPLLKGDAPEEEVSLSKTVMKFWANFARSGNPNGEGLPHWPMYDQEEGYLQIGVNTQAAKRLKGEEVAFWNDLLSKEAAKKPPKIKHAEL

Biological target: Liver carboxylesterase (Sus scrofa, UniProt Q29550)

In the case of `C[C@@H](Cn1cc(COP(C)(=O)OC(C(F)(F)F)C(F)(F)F)nn1)NC(=O)CN(Cc1ccccc1)C(=O)C(F)(F)F` (stereo not given in full), the IC50 is reported as 182 µM.
For `CC[C@H](C)[C@H](NC(=O)OC(C)(C)C)C(=O)N(Cc1ccc(OC)cc1OC)C(C)(C)C(=O)N[C@@H](C)Cn1cc(COP(C)(=O)OC(C(F)(F)F)C(F)(F)F)nn1` (stereo not given in full), the IC50 was 825 µM.
`CC(C)[C@@H](Cn1cc(COP(C)(=O)OC(C(F)(F)F)C(F)(F)F)nn1)NC(=O)CN(Cc1ccccc1)C(=O)[C@H](C)NC(=O)OC(C)(C)C` (stereo not given in full) was tested, and the IC50 was 785 µM.
`COC(=O)C(OP(C)(=O)OCc1cn(C[C@@H](NC(=O)CN(Cc2ccccc2)C(=O)C(F)(F)F)C(C)C)nn1)C(F)(F)F` (stereo not given in full) was tested, and the IC50 was 158 µM.
In the case of `CC(C)(C(=O)NCCn1cc(COP(C)(=O)OC(C(F)(F)F)C(F)(F)F)nn1)N(Cc1ccccc1)C(=O)C(F)(F)F` (stereo not given), the IC50 is reported as 145 µM.
